{
  "sequences": {"note": "Protein sequences, listed by entry. Tags and fused reporters are not part of them. Lines headed by an entry give the natural chain unless they say otherwise; changes in a name come on top.", "UniProt P32745": "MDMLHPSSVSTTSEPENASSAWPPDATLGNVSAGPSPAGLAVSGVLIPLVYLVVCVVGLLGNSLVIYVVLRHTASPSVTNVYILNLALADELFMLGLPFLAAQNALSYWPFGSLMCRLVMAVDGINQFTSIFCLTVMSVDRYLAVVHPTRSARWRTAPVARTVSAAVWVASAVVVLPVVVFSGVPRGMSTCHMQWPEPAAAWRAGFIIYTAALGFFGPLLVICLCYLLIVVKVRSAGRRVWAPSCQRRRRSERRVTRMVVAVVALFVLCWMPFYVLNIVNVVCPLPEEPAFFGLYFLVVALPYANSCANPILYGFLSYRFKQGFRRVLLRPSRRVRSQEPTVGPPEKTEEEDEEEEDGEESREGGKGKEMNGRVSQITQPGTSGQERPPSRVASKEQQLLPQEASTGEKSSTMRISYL", "UniProt P30874": "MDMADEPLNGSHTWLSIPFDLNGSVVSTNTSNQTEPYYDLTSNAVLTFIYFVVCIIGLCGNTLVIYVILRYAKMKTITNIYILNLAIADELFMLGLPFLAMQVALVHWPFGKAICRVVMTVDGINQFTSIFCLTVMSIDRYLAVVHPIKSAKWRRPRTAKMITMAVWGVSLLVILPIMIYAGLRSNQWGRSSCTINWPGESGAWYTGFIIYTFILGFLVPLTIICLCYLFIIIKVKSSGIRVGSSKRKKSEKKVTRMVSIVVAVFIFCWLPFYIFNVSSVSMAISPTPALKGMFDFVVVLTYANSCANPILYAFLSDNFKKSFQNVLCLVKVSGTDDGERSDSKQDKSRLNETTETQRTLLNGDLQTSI", "UniProt P30872, whole entry, species assumed": "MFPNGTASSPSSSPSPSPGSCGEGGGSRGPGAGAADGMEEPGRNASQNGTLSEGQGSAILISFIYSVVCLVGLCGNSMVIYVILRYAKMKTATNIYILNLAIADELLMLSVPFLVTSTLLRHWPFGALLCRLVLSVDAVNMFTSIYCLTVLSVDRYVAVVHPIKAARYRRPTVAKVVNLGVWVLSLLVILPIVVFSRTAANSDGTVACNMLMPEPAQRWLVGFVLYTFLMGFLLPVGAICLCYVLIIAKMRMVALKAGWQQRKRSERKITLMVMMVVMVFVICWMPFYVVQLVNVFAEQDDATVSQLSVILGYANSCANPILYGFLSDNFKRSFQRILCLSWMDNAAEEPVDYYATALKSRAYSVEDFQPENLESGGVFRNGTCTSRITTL", "UniProt P31391": "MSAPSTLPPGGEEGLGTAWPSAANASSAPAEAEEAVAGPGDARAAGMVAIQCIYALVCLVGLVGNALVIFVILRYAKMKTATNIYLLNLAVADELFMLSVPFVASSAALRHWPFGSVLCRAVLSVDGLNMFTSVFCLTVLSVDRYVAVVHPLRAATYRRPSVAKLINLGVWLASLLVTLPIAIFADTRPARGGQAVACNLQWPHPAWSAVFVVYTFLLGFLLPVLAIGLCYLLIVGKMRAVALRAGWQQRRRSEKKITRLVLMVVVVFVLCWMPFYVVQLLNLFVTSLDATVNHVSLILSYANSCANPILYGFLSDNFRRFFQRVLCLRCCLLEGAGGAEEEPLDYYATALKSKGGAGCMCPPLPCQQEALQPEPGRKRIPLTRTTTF", "UniProt P35346": "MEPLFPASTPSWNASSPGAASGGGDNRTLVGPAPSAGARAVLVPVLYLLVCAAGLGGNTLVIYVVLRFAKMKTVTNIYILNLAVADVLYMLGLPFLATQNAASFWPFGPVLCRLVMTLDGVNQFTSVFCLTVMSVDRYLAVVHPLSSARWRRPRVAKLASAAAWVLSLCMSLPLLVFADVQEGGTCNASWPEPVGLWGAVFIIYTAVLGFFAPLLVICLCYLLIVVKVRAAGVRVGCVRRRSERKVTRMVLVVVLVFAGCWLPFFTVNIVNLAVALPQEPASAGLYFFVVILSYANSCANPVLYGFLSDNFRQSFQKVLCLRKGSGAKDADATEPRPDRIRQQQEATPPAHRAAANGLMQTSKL"},
  "source": "patent US9441024B2",
  "about": "“Glycosylated polypeptide and drug composition containing said polypeptide” (priority 2011, dated 2016)",
  "key": {"SSTR3 [1]": {"target": "T1, SSTR3 (Homo sapiens, UniProt P32745)"}, "SSTR2 [2]": {"target": "T2, SSTR2 (Homo sapiens, UniProt P30874)"}, "SSTR2 [3]": {"target": "T2, SSTR2", "experiment": "Competitive binding assay, SSTR2 membrane sample", "settings": "Table 3B, competitive binding assay (Example 69-2); for Ki: read-out: SSTR2 Ki; for IC50: read-out: SSTR2 IC50"}, "[4]": {"experiment": "Pharmacokinetics test with rats (intravenous and subcutaneous administration)", "settings": "rat; for Extension of t1/2 compared to non-glycosylated SRIF28 / Increase of AUC compared to non-glycosylated SRIF28: administered intravenously (text on Tables 5B-5F); for Intravenous administration AUC / Subcutaneous administration AUC: Tables 5B-5F, unit from footnote of Table 5; for Extension of t1/2 compared to non-glycosylated SRIF14 / Increase of AUC compared to non-glycosylated SRIF14: administered intravenously (text on Tables 5B, 5D); for AUC for subcutaneous administration as fraction of that of S1C(disialo)-SRIF28: s.c., Examples 70-87"}, "SSTR1 [5]": {"target": "T3, SSTR1 (Homo sapiens, UniProt P30872)", "experiment": "Competitive binding assay, SSTR1 membrane sample", "settings": "for IC50: read-out: SSTR1 IC50"}, "SSTR3 [6]": {"target": "T1, SSTR3", "experiment": "Competitive binding assay, SSTR3 membrane sample", "settings": "Table 3B, competitive binding assay (Example 69-2); for IC50: read-out: SSTR3 IC50"}, "SSTR1 [7]": {"target": "T3, SSTR1", "experiment": "Agonist activity: cAMP production suppression, SSTR1 receptor expression cells", "assay_type": "cell-based", "settings": "read-out: IC50 of agonist activity, SSTR1; Table 3E (Example 69-4)"}, "SSTR4": {"target": "SSTR4 (Homo sapiens, UniProt P31391)", "experiment": "Competitive binding assay, SSTR4 membrane sample", "settings": "for Ki: read-out: SSTR4 Ki"}, "SSTR5": {"target": "SSTR5 (Homo sapiens, UniProt P35346)", "experiment": "Competitive binding assay, SSTR5 membrane sample", "settings": "Table 3B, competitive binding assay (Example 69-2); for IC50: read-out: SSTR5 IC50"}, "SSTR1 [8]": {"target": "T3, SSTR1"}, "[9]": {"settings": "subcutaneous vs intravenous, (AUC(sc)/Dose(sc))/(AUC(iv)/Dose(iv)), Table 5 (5A)"}, "[10]": {"settings": "Table 3B, competitive binding assay (Example 69-2)"}, "[11]": {"settings": "Table 3A (Example 69-1), labeled ligand [125I]Tyr11-SRIF14"}},
  "note": "Where two headings read alike, the source gives them in different places.",
  "data": [
    {"substance": "C(disialo)-SRIF14 [Example 17]", "values": [
      {"measurement": "Ki", "setting": "SSTR3 [1]", "result": 1.56, "unit": "nM"},
      {"measurement": "IC50", "setting": "SSTR2 [2]", "result": 0.336, "unit": "nM"}
    ]},
    {"substance": "A15C(disialo)-SRIF28 [Example 7]", "values": [
      {"measurement": "Ki", "setting": "SSTR2 [3]", "result": 0.408, "unit": "nM"}
    ]},
    {"substance": "Biotin-PEG linker-S1C(disialo)-SRIF28 [Example 47]", "values": [
      {"measurement": "IC50", "setting": "SSTR2 [3]", "result": 1.96, "unit": "nM"}
    ]},
    {"substance": "S1-3C(asialo)-SRIF28 [Example 29]", "values": [
      {"measurement": "Extension of t1/2 compared to non-glycosylated SRIF28", "setting": "[4]", "result": 5, "unit": "folds"},
      {"measurement": "Increase of AUC compared to non-glycosylated SRIF28", "setting": "[4]", "result": 6, "unit": "folds"}
    ]},
    {"substance": "A9C(disialo)-SRIF28 [Example 3]", "values": [
      {"measurement": "BA (bioavailability)", "setting": "[4]; [9]", "result": 60, "unit": "%"}
    ]},
    {"substance": "Biotin-S1C(disialo)-SRIF28 [Example 46]", "values": [
      {"measurement": "IC50", "setting": "SSTR1 [5]; [10]", "result": 11, "unit": "nM"}
    ]},
    {"substance": "S1C(GlcNAc)-SRIF28 [Example 55]", "values": [
      {"measurement": "Ki", "setting": "SSTR3 [6]; read-out: SSTR3 Ki", "result": 0.565, "unit": "nM"}
    ]},
    {"substance": "S1C(Asn(disialo))-SRIF28 [Example 65]", "values": [
      {"measurement": "IC50", "setting": "SSTR1 [7]", "result": 2.6, "unit": "nM"}
    ]},
    {"substance": "R13C(disialo)-SRIF28 [Example 5]", "values": [
      {"measurement": "IC50", "setting": "SSTR4; read-out: SSTR4 IC50, Table 3A (Example 69-1)", "result": 0.43, "unit": "nM"}
    ]},
    {"substance": "C(disialo)-C12 linker-SRIF14 [Example 19]", "values": [
      {"measurement": "Ki", "setting": "SSTR3 [1]", "result": 1.07, "unit": "nM"},
      {"measurement": "Intravenous administration AUC", "setting": "[4]", "result": 1686, "unit": "nM·min"},
      {"measurement": "Subcutaneous administration AUC", "setting": "[4]", "result": 345, "unit": "nM·min"},
      {"measurement": "Ki", "setting": "SSTR4; Table 3A (Example 69-1)", "result": 2.62, "unit": "nM"}
    ]},
    {"substance": "S1-4C(disialo)-SRIF28 [Example 68]", "values": [
      {"measurement": "Ki", "setting": "SSTR5; read-out: SSTR5 Ki", "result": 5.32, "unit": "nM"},
      {"measurement": "Extension of t1/2 compared to non-glycosylated SRIF28", "setting": "[4]", "result": 48, "unit": "folds"},
      {"measurement": "Increase of AUC compared to non-glycosylated SRIF28", "setting": "[4]", "result": 15, "unit": "folds"}
    ]},
    {"substance": "S1-2C(disialo(amide))-SRIF28 [Example 63]", "values": [
      {"measurement": "Ki", "setting": "SSTR4; [10]", "result": 2.67, "unit": "nM"}
    ]},
    {"substance": "N19C(disialo)-SRIF28 [Example 10]", "values": [
      {"measurement": "Ki", "setting": "SSTR3 [1]", "result": 0.503, "unit": "nM"},
      {"measurement": "Ki", "setting": "SSTR2 [2]", "result": 0.645, "unit": "nM"},
      {"measurement": "IC50", "setting": "SSTR1 [5]; [11]", "result": 10.1, "unit": "nM"}
    ]},
    {"substance": "30C(disialo)-SRIF28 [Example 14]", "values": [
      {"measurement": "IC50", "setting": "SSTR2 [2]", "result": 0.517, "unit": "nM"}
    ]},
    {"substance": "N5C(disialo)-SRIF28 [Example 2]", "values": [
      {"measurement": "Ki", "setting": "SSTR3 [1]", "result": 0.099, "unit": "nM"},
      {"measurement": "BA (bioavailability)", "setting": "[4]; [9]", "result": 54, "unit": "%"}
    ]},
    {"substance": "N5N(disialo)-SRIF28 [Example 30]", "values": [
      {"measurement": "IC50", "setting": "SSTR1 [5]; [11]", "result": 3.02, "unit": "nM"}
    ]},
    {"substance": "2C(disialo)-R—K-SRIF14 [Example 50]", "values": [
      {"measurement": "Extension of t1/2 compared to non-glycosylated SRIF14", "setting": "[4]", "result": 63, "unit": "folds"},
      {"measurement": "Increase of AUC compared to non-glycosylated SRIF14", "setting": "[4]", "result": 42, "unit": "folds"},
      {"measurement": "Ki", "setting": "SSTR1 [5]; read-out: SSTR1 Ki, Table 3B, competitive binding assay (Example 69-2)", "result": 40, "unit": "nM"}
    ]},
    {"substance": "C(disialo(aminoethylamide))/S1C(disialo)-SRIF28 [Example 67]", "values": [
      {"measurement": "Intravenous administration AUC", "setting": "[4]", "result": 3742, "unit": "nM·min"},
      {"measurement": "Subcutaneous administration AUC", "setting": "[4]", "result": 1289, "unit": "nM·min"}
    ]},
    {"substance": "T26C(disialo)-SRIF28 [Example 12]", "values": [
      {"measurement": "IC50", "setting": "SSTR5", "result": 400, "unit": "nM"}
    ]},
    {"substance": "E12C(disialo)-SRIF28 [Example 4]", "values": [
      {"measurement": "Ki", "setting": "SSTR2 [2]", "result": 0.0596, "unit": "nM"}
    ]},
    {"substance": "3C(disialo)-R—K-SRIF14 [Example 51]", "values": [
      {"measurement": "Extension of t1/2 compared to non-glycosylated SRIF14", "setting": "[4]", "result": 71, "unit": "folds"},
      {"measurement": "Increase of AUC compared to non-glycosylated SRIF14", "setting": "[4]", "result": 36, "unit": "folds"}
    ]},
    {"substance": "SRIF28 [reference compound]", "values": [
      {"measurement": "IC50", "setting": "SSTR3 [1]", "result": 0.0368, "unit": "nM"},
      {"measurement": "Ki", "setting": "SSTR2 [2]", "result": 0.144, "unit": "nM"},
      {"measurement": "Ki", "setting": "SSTR1 [8]", "result": 0.292, "unit": "nM"},
      {"measurement": "BA (bioavailability)", "setting": "[4]; Table 5E (Example 86), s.c. versus i.v.", "result": 5, "unit": "%"},
      {"measurement": "BA (bioavailability)", "setting": "[4]; [9]", "result": 5, "unit": "%"},
      {"measurement": "Bioavailability (BA)", "setting": "[4]; text on Table 5A (Examples 71-75), s.c. versus i.v.", "result": 5, "unit": "%"},
      {"measurement": "IC50", "setting": "SSTR2 [3]", "result": 0.068, "unit": "nM"},
      {"measurement": "Ki", "setting": "SSTR2 [3]", "result": 0.0565, "unit": "nM"},
      {"measurement": "IC50", "setting": "SSTR3 [6]", "result": 0.106, "unit": "nM"}
    ]},
    {"substance": "S1C(asialo)-SRIF28 [Example 27]", "values": [
      {"measurement": "Extension of t1/2 compared to non-glycosylated SRIF28", "setting": "[4]", "result": 10, "unit": "folds"},
      {"measurement": "Increase of AUC compared to non-glycosylated SRIF28", "setting": "[4]", "result": 10, "unit": "folds"},
      {"measurement": "AUC for subcutaneous administration as fraction of that of S1C(disialo)-SRIF28", "setting": "[4]", "result": "⅓-½"}
    ]},
    {"substance": "C(disialo)-K-SRIF14 [Example 42]", "values": [
      {"measurement": "IC50", "setting": "SSTR3 [6]", "result": 3.65, "unit": "nM"}
    ]},
    {"substance": "S1-2C(asialo)-SRIF28 [Example 28]", "values": [
      {"measurement": "Extension of t1/2 compared to non-glycosylated SRIF28", "setting": "[4]", "result": 6, "unit": "folds"},
      {"measurement": "Increase of AUC compared to non-glycosylated SRIF28", "setting": "[4]", "result": 6, "unit": "folds"},
      {"measurement": "AUC for subcutaneous administration as fraction of that of S1C(disialo)-SRIF28", "setting": "[4]", "result": "⅓-½ and ½"}
    ]},
    {"substance": "S1C(disialo(aminoethylamide))-SRIF28 [Example 59]", "values": [
      {"measurement": "IC50", "setting": "SSTR5", "result": 2.68, "unit": "nM"},
      {"measurement": "AUC for subcutaneous administration as fraction of that of S1C(disialo)-SRIF28", "setting": "[4]", "result": "1/7"}
    ]}
  ]
}
